The source of these data is PubChem BioAssay AID2462 (Broad Institute, 2010).

The structures appear in SMILES notation. This is a selection; strong and weak results do not stand in their true shares. Some of these compounds have results that are not shown, active ones among them. Activity calls are given as the source filed them.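 How the source made its calls: active means over half of replicate activation scores above 10%, or exactly half above 10 with the replicate mean above 10; inconclusive means replicate mean below 10 yet half the replicates above 10; inactive means over half of replicates below 10.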

The nature of the experiment: caspase 3/7 activation in MEF A1-2A-BIM cells, primary screen, A1 inhibitor project, cell-based, luminescence, HTS (AID 2462). To be noted: Caspase-Glo 3/7 luminescence, 3 h, active compounds read high, percent of clofoctol response, vehicle zero, concentration not given here.
As for `O=C(OC1CN2CCC1CC2)C(CO)(c1ccccc1)c1ccccc1` (centres undefined), the caspase activation is inactive: -0.185%. As to `COc1ccc(Br)c(C(=O)NCC2(N3CCCCC3)CCCCC2)c1`, the caspase activation is inactive: 0.738%. As to `CC(C)Oc1ccc(C(=O)NCC2(N(C)C)CCCCC2)cc1`, the caspase activation is inactive: -0.873%.

Take `CN(C)c1cccc(C(=O)NCC2(N(C)C)CCCCC2)c1`: the caspase activation is inactive: -0.444%. As to `CN(C)C1(CNC(=O)c2ccc(Br)cc2)CCCCC1`, the caspase activation was inactive: 0.31%. For the compound `COc1cc(C(=O)NCC2(N(C)C)CCCCC2)c([N+](=O)[O-])cc1OC`, the caspase activation was inactive: 0.714%. To `COc1cccc(C(=O)NCC2(N3CCCCC3)CCCCC2)c1` belongs inactive: 0.0942%; to `COc1ccc(Cl)cc1C(=O)NCC1(N(C)C)CCCCC1`, inactive: -0.0789%.

Turning to `O=C(NCC1(N2CCCCC2)CCCCC1)c1cccc(Cl)c1`, the caspase activation was inactive: 0.0949%. To `Cc1ccccc1C(=O)NCC1(N2CCCCC2)CCCCC1` belongs inactive: 0.79%; to `CN(C)C1CCCC1OC(=O)C(O)(c1ccccc1)c1ccccc1` (centres undefined), inactive: 0.385%; to `CN(C)c1ccc(C(=O)NCC2(N(C)C)CCCCC2)cc1`, inactive: -0.0664%. For `C=CCN1CCN(CCOC(=O)C(O)(c2ccccc2)c2ccccc2)CC1`, the caspase activation was inactive: 0.457%. As for `O=C(NCC1(N2CCCCC2)CCCCC1)c1cc(F)c(F)cc1Cl`, the caspase activation is inactive: -0.366%. On to `COc1ccc(C(=O)NCC2(N(C)C)CCCCC2)cc1`, for which the caspase activation is inactive: 0.479%. To `Cc1cc(C(=O)NCC2(N3CCCCC3)CCCCC2)ccc1[N+](=O)[O-]` belongs inactive: -0.579%. Next, `CCN1CCCC(OC(=O)C2(O)c3ccccc3C=Cc3ccccc32)C1` (centres undefined): inactive: 0.453%; `O=C(NCC1(N2CCCCC2)CCCCC1)c1cccc(Br)c1`: inactive: 0.197%; `O=C(NCC1(N2CCCCC2)CCCCC1)c1cc([N+](=O)[O-])ccc1Cl`: inactive: 0.41%. With `CN1[C@@H]2CC[C@H]1CC(OC(=O)C(O)(c1ccccc1)c1ccccc1)C2` (some centres undefined), the caspase activation is inactive: -0.267%. Next, `CCN(CC)CC(C)C(C)OC(=O)C(O)(c1ccccc1)c1ccccc1` (centres undefined): inactive: -0.213%; `COc1cc(SC)ccc1C(=O)NCC1(N(C)C)CCCCC1`: inactive: 0.679%; `CC(C)N1C(=O)CC2(CCN(CCOC(=O)C(O)(c3ccccc3)c3ccccc3)CC2)C1=O`: inactive: 0.0707%. For `Cc1ccc(C(=O)NCC2(N3CCCCC3)CCCCC2)cc1`, the caspase activation was inactive: -0.226%.
